Measured values as given in patent publication US10106502B2, “Direct inhibitors of Keap1-Nrf2 interaction as antioxidant inflammation modulators” (Rutgers, The State University of New Jersey, priority 2011, dated 2018).

Tested on: CellSensor® ARE-bla Hep G2 cell line
Assay: cell-based ARE β-lactamase reporter assay
Parameters: species or system human

O=C(O)[C@@H]1CCCC[C@@H]1C(=O)N1CCc2ccccc2[C@@H]1CN1C(=O)c2ccccc2C1=O [LH601B]
ARE-inducing activity (in words): inactive
